This note sets out measurements from ChEMBL document CHEMBL2034935, “Discovery of a Novel Series of CRTH2 (DP2) Receptor Antagonists Devoid of Carboxylic Acids” (ACS Med Chem Lett, 2011).

Test [1] addresses T1, Prostaglandin D2 receptor 2 (Homo sapiens, UniProt Q9Y5Y4).
T1 sequence (Q9Y5Y4 whole entry): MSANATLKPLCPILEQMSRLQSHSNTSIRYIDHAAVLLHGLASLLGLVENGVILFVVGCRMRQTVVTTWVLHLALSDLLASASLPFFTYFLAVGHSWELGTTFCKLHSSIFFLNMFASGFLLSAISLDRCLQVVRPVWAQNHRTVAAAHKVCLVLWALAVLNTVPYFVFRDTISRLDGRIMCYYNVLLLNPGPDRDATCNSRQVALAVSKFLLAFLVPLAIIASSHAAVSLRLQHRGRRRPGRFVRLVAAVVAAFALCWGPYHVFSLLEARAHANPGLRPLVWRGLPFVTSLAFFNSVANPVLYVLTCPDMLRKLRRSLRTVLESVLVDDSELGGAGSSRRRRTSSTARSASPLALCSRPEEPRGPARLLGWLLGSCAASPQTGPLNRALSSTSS
Put plainly: Displacement of [3HPGD2 from human CRTH2 receptor expressed in CHO cell membrane after 90 mins by scintillation proximity assay. The class given is cell membranes.

In test [2] the target is T1, Prostaglandin D2 receptor 2. Put plainly: Antagonist activity at human CRTH2 receptor expressed in CHO cell membrane assessed as inhibition of PGD2-induced [35S]GTPgammaS binding after 30 mins by microbeta scintillation counting. The class given is functional, cell membranes.

The structures appear in SMILES notation.

With `CCC(=O)N(Cc1cccc(O)c1)c1cc(F)cc(-c2nnn[nH]2)c1`, in test [1], the affinity corresponds to a Ki of 26 nM. In addition, the concentration for half-maximal inhibition (IC50) in test [2] is 85 nM.
